## Apparent affinities of Ab-14 variants for a coronavirus HR2 peptide

From the AlphaSeq antibody data of Li et al. 2023 (doi:10.1038/s41467-023-39022-2), copy in the FLAb collection.

Target: peptide PDVDLGDISGINAS, taken from heptad repeat 2 (HR2) of SARS-CoV-2 spike.

Ab-14 is the parent antibody, in scFv form: VH, then a 15-residue (Gly4Ser)3 linker, then VL. The heavy chain is unchanged in all variants.
VH: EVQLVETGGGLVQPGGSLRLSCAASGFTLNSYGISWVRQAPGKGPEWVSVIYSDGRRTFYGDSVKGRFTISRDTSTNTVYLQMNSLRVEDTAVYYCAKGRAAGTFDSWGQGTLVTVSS
VL: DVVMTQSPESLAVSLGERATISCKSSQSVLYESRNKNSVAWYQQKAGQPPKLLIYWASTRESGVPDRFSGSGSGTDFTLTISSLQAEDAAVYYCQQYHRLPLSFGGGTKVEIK

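The starting antibody came from a phage panning campaign against this peptide. These sequences belong to a second round, designed from the earlier measurements on random variants of the parent. Their group label is 14L_GP_HC (GP: Gaussian process model; HC: hill climbing; a sequence that several methods proposed may carry one label only). The assay is AlphaSeq: two haploid yeast populations carry antibody and antigen on their surface. Binding brings cells together so that they mate, and sequencing counts the barcode pairs among the diploids. Each replicate has its own calibration line, from reference interactions of the BCL2 family. Each pool was mated in six replicate cultures.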

Each variant is given by its three light chain CDRs, as the data file delimits them; those of the parent are KSSQSVLYESRNKNSVA, WASTRES, QQYHRLPLS. Affinities are written as log10 Kd with Kd in nM; a lower number is a better binder. A pair that was not seen in that replicate is written "n.d."; this usually means weak binding, but a binder can also be missed. A sequence measured in both rounds can read differently, since the two assays cover different ranges. Nonspecific signal, from three strains lacking the peptide, appeared in 4% of pairings of all light chain designs, centred on 2.64 (5% of these signals below 1.59); values are not corrected for it. The control count says in how many pairings with the empty strains this scFv gave a signal, with their mean in brackets. The authors' rule: three or more of the six replicates give a measured affinity, fewer mean a poor binder.

| # | CDR-L1 | CDR-L2 | CDR-L3 | log10 Kd, replicates | control signals |
|---|---|---|---|---|---|
| 1 | KQSDSVLLESRNKNSVA | DASTRES | QQYHRLPLS | 0.14 0.01 -0.21 -0.17 -0.37 -0.01 | 2/18 (2.71) |
| 2 | KSSPSWLYEDRVKNSVA | GASTRES | QQYHRLPLS | 0.60 0.43 0.45 0.31 0.34 0.58 | 5/18 (2.37) |
| 3 | KFSQSVLYESRNKNAVA | DASTRES | QMYHWLPLS | 1.19 1.14 0.74 0.79 1.28 1.21 | 1/18 (2.30) |
| 4 | KSSQGVLYESRNKNSVA | GASQRES | QQYHRLPLS | 0.41 0.38 0.09 0.16 0.09 0.30 | 2/18 (3.97) |
| 5 | KFSQWVPYESRTKNSVA | NASTRES | QQYHRLPLS | 1.53 1.00 0.89 0.87 0.93 1.32 | 3/18 (3.63) |
| 6 | KLRQSTKYESRNQNSVA | WASTRED | QQYHRLPLS | 1.25 1.13 0.88 0.91 0.70 0.92 | 2/18 (3.44) |
| 7 | KFSQKVLYENRTKNSVA | NASTRES | QQYHRLPLS | n.d. 1.84 n.d. n.d. n.d. n.d. | 0/18 |
| 8 | KCSQSWLYESRNKNSVA | GASTRES | QQYHRLPLS | 0.12 0.34 -0.04 -0.36 -0.26 0.38 | 1/18 (2.11) |
| 9 | KSSWSVLFESRNKNSVA | DASTRSQ | QQYHRLPLS | 0.61 0.46 0.33 0.47 0.29 0.59 | 0/18 |
| 10 | KSSQSFLYESRNKNSVA | GASTRES | QCYHRLPLS | 0.81 0.73 0.78 0.55 0.62 0.69 | 1/18 (2.66) |
| 11 | KQSQSWLMESRNKNSVA | EASTRQS | QQYHRLPLS | 0.12 0.14 -0.06 -0.14 0.15 0.14 | 0/18 |
| 12 | KESQMWLYESRNKNSVA | GASTRES | QQYHRLPLS | 0.36 0.12 -0.02 -0.24 -0.21 0.17 | 1/18 (2.96) |
| 13 | KMSQSVLMELRNKNSVA | DASLRES | QQYHRLPLS | 0.23 -0.08 -0.05 -0.19 0.00 0.20 | 0/18 |
| 14 | KLSQSFLYESRWKNSVA | DASQRES | QQYHRLPLS | 0.20 0.81 0.46 -0.06 -0.07 0.31 | 0/18 |
| 15 | FQSQSVLYESRNKNSVA | DASTRES | QQYHRLPLS | 0.32 0.41 0.07 0.54 -0.03 0.47 | 0/18 |
| 16 | KHSQSWLYESRNKNSVA | GASTRES | QQYHRLPLS | 0.17 0.08 0.04 -0.16 -0.09 0.05 | 2/18 (3.07) |
| 17 | KSQQGVLYQSRNKNSVA | GASTRES | QQYHRLPLS | 1.08 0.80 1.50 0.91 1.19 1.23 | 0/18 |
| 18 | KVSFSYLYESRNKNSVA | NASTRES | QQYHRLPLS | -0.22 -0.23 -0.43 -0.44 -0.42 -0.29 | 2/18 (1.71) |
| 19 | YSSISYLYESPNKNSVA | EASTRES | QQYHRLPLS | 0.50 0.72 0.65 0.61 1.01 0.88 | 0/18 |
| 20 | HSSPSVLYESRNGNSVA | NASTREV | QQYHRLPLS | 0.66 0.73 0.73 1.06 0.88 0.72 | 1/18 (4.09) |
| 21 | KQSQEPLYESRNKNSVA | DASTRES | QQYHRLPLS | 0.68 0.30 0.15 0.38 0.37 0.46 | 2/18 (1.25) |
| 22 | HLSQSVPYESRNKNSVA | NASTREE | QQYHRLPLS | -0.11 -0.30 -0.27 -0.23 -0.36 -0.14 | 1/18 (3.91) |
| 23 | KSSQSWLYESRNKWSVA | GASTRES | QQYHRLPLS | 0.30 0.52 1.15 1.02 1.51 1.47 | 0/18 |
| 24 | KSQQSQLYESRNKNNVA | HASTRED | QQYHRLPLS | 0.11 -0.02 -0.18 -0.05 -0.09 0.20 | 1/18 (2.58) |
| 25 | KLRQSTKYESRNQNSVA | DASTRES | QQYHRLPLS | 1.11 0.90 1.51 1.29 1.03 0.90 | 0/18 |
| 26 | HASPSVLYESRNKNSVA | NASTRES | QQYHRLPLQ | 0.52 0.22 0.30 0.15 0.42 0.28 | 1/18 (3.00) |
| 27 | KVSQSVLFQSRNKNSVA | DASTRES | QQYHRLPLS | -0.18 -0.43 -0.38 -0.54 -0.39 -0.02 | 0/18 |
| 28 | KSQQSVLYESRNKNNVA | HASTRED | QQYHRLPLS | 0.34 0.06 -0.12 0.19 0.05 0.24 | 3/18 (2.57) |
| 29 | KQQQSVLYESRNKNNVA | HASTRED | QQYARLPLS | -0.18 -0.50 -0.48 -0.59 -0.03 -0.23 | 0/18 |
| 30 | KSDQGGLYESRNKNSVA | GASTRES | QQYHRLPLS | -0.40 -0.17 -0.45 -0.10 0.20 0.09 | 0/18 |
| 31 | KSSISWLYESRNTNSVA | EASTRES | QQYHRLPLS | -0.30 -0.12 -0.28 -0.41 -0.31 -0.23 | 0/18 |
| 32 | KLLQSVLYESRNKNSVA | GASTRED | QQYHRLPLS | 0.13 0.79 0.33 0.35 0.11 0.26 | 0/18 |
| 33 | KFSQSVLYESRNKNSVA | NASTREA | QQYHRLPLS | -0.30 -0.21 -0.42 -0.54 -0.17 -0.11 | 3/18 (2.90) |
| 34 | KFSQSVLYESTTGNSVA | NASTRES | QQYHRLPLS | 0.42 0.29 0.23 0.16 0.34 0.36 | 3/18 (2.61) |
| 35 | KISQSILYESVNKNSVA | HASTRES | QQYHRLPLS | 0.62 0.42 0.05 0.28 0.28 0.43 | 0/18 |
| 36 | KLPQSVLYESRNKNSVA | GASVRES | QQYHRLPLS | -0.35 -0.44 -0.52 -0.43 -0.49 -0.17 | 1/18 (2.51) |
| 37 | KQSQSVLFESRNKNSVA | DASTRES | QQYHRLPLS | -0.16 -0.31 -0.22 -0.38 -0.28 -0.43 | 0/18 |
| 38 | KSSQSYWYESRNKNSVA | GASTRES | QQYHRLPLS | 0.33 0.31 0.33 0.18 0.19 0.28 | 2/18 (2.48) |
| 39 | KQSQSVLYESVNKNSVA | DASTRET | QQYHRLPLS | 0.18 0.05 -0.10 0.11 0.30 0.26 | 0/18 |
| 40 | KLLQSVLYESRNKNSVA | HASTREQ | QQYHFLPLS | 0.26 -0.14 -0.43 -0.25 -0.47 -0.19 | 2/18 (2.74) |
| 41 | KSSISYLYESANKNSVA | NASTRES | QQYHRLPLS | -0.02 -0.04 -0.15 0.04 -0.07 0.28 | 0/18 |